# Laboratory results: patent US12171806B2, “Therapeutic regimens and methods for lowering blood glucose and/or body weight using GLP-1R and GCGR balanced agonists” (priority 2021, dated 2024)
# Protein sequences, listed by entry. Tags and fused reporters are not part of them. Residues count along the entry.
# UniProt P47871, 26-477: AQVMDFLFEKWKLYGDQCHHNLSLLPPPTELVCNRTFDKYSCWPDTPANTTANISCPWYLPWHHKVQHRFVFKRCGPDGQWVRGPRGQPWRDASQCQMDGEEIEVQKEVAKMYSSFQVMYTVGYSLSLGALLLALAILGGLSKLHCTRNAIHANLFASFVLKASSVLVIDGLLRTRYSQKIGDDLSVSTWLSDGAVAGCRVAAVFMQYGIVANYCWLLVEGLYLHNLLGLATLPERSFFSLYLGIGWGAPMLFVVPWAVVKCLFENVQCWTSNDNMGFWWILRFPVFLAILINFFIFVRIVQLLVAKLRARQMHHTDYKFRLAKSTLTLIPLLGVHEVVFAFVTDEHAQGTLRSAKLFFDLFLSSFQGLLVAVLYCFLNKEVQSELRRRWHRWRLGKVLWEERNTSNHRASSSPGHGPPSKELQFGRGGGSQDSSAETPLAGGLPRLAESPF
# Key:
# [1] = Phase 1 MAD study of ALT-801: glucose homeostasis, fasting plasma glucose and HbA1c; type: in vivo, human; conditions: for Fasting Plasma Glucose, change from baseline / Fasting Plasma Glucose, percent change from baseline: mean of weekly measurements, Weeks 1-12, compared to Baseline
# Experimental: Blood samples are collected for evaluation of ketone bodies after the subject has fasted overnight for at least 10 hours, 1 day prior to the first and second doses, and 6 days after the last dose. Blood samples for evaluation of FGF-21 and adiponectin are collected after the subject has fasted overnight for at least 10. Following a minimum 10 hour fast, blood is collected for assessment of lipids, including cholesterol (total, HDL, LDL), Apo A and B, lipoprotein(a), TG, and tripalmitin, prior to the first dose and 6 days after the last dose of study medication, as indicated in Table 4. Blood is collected for the assessment of inflammatory markers, including TNF-α, hs-CRP, leptin, MCP-1, and IL-6 prior to the first dose and 6 days after the last dose of study medication, as indicated in Table 4. Glucose homeostasis is assessed by 24-hour CGM using a Dexcom G6 CGM during the periods indicated in Part 1 and Part 2.
# [2] = Population PK model / pharmacometric modelling, predicted human PK and efficacious dose
# Text: The pre-clinical safety findings support a 3-fold dose escalation increment to SAD Cohort 2. Subsequent escalations will not exceed 2-fold in either part of the study. Dose titration schemes may be explored if needed to improve tolerability. Adding to the confidence around these predictions, the dose-exposure relationship in humans is predicted to be linear based on a population PK model of several preclinical species (mice, rats, mini-pigs, and monkeys). The model is updated with human data as the study is ongoing. […] Based on once-weekly (QW) dosing, the estimated accumulation with repeated dosing at steady state is not greater than 2-fold. To ensure that multiple dose exposures will remain within single dose exposures, the starting dose in Part 2 is planned to be one-half the dose for Part 1 Cohort 3. However, subsequent Part 2 cohorts may be adjusted based on safety and PK data. The decision to escalate to each successive dose level is based on assessment of safety and tolerability through Day 8 (7 days following the single dose) in Part 1 and Day 15 (7 days following the second dose) in Part 2. […] Further, the expectation is the Cmax and AUCtau of the final week of dosing will not exceed the Cmax or AUCinf of a dose in a previously completed and safety-assessed SAD cohort.
# [3] = Phase 1 MAD study of ALT-801: appetite suppression / early satiety; type: in vivo, human; conditions: 12 weeks, 1.2, 1.8 and 2.4 mg
# Experimental: Food intake and appetite are assessed using an ad libitum meal test and the VAS questionnaire. VAS questionnaires are standard techniques in appetite research that record feelings of hunger, satiety, fullness, and desire to eat specific tastes, such as sweet, salty, savory, and fatty [Flint 2000]. Subjects will complete a VAS questionnaire before and after an ad libitum meal on days specified in the schedule of assessments. The size of the ad libitum meal will exceed expected intake of healthy overweight and obese volunteers. During the test meal, subjects are isolated and environmental cues minimized (ie, no TV, cell phones, computers, etc.). Subjects are instructed that they have 30 minutes to consume as much or as little as they want, and they should eat until comfortably full. Pre and post meal weights are recorded to capture food intake, and caloric consumption is determined.
# [4] = Example 7 planned Phase 1 12-week study of ALT-801 in subjects with NAFLD; type: in vivo, human; conditions: SC once weekly up to 12 doses, NASH
# Text: Subjects will be stratified for the presence of absence of diabetes at baseline. […] Subjects will be stratified for the presence of absence of diabetes at baseline.
# For this study, suitable subjects are those with NAFLD without significant fibrosis, defined as FibroScan® controlled attenuation parameter (CAP)≥280 dB/m and liver stiffness measurement (LSM)<8.5 kPa, and magnetic resonance imaging derived proton density fat fraction (MRI-PDFF)≥10%. […] There will be 18 subjects in each treatment arm.
# [5] = biological target: T1, glucagon (human, cloned into CHO cells) receptor (Homo sapiens, UniProt P47871); assay: cAMP stimulation cellular assay (DiscoveRx LeadHunter), glucagon receptor; type: cell-based
# T1 construct: host or cells: CHO cells
# [6] = Phase 1 MAD study of ALT-801: pre-diabetes and metabolic syndrome; type: in vivo, human
# [7] = Good Laboratory Practice toxicology study, NOAEL in monkeys; type: in vivo
# Experimental: The maximal recommended starting dose (MRSD) in Part 1 is based on one tenth the human equivalent dose (HED) at the NOAEL determined in animals (rats and monkeys) in the pivotal Good Laboratory Practice toxicology study. […] The rat NOAEL was the high dose, 0.45 mg/kg/week, which is equivalent to 0.44 mg/wk in a 60 kg human based on body surface area scaling. […] Using a 10-fold scaling factor for safety, the human starting dose of 0.40 mg/wk for a 60 kg human was selected. […] This is particularly relevant because the monkey, although not the most sensitive species, is biologically the more relevant species for the most clinically relevant toxicities (i.e., reduced food intake and vomiting). Clinical observations and PK in Part 1 will ultimately guide dosing considerations in Part 2.
# The pre-clinical safety findings support a 3-fold dose escalation increment to SAD Cohort 2. Subsequent escalations will not exceed 2-fold in either part of the study. Dose titration schemes may be explored if needed to improve tolerability. […] Further, the expectation is the Cmax and AUCtau of the final week of dosing will not exceed the Cmax or AUCinf of a dose in a previously completed and safety-assessed SAD cohort.
# [8] = Phase 1 MAD study of ALT-801: study disposition; type: in vivo, human; conditions: for Early withdrawal due to adverse event, % of subjects: 12-week MAD
# Experimental: The Safety Population includes all randomized subjects who receive at least 1 dose of study medication. Subjects is analyzed according to the treatment that they receive. […] The QT Population includes all subjects in the PK Population who have at least 1 time-matched ECG at baseline and corresponding time-matched PK-ECG postdose. The PD Population includes all randomized subjects who receive at least 1 dose of study medication and who have results from baseline and at least 1 post-baseline PD assessment.
# [9] = Phase 1 MAD study of ALT-801: systolic and diastolic blood pressure; conditions: 12 weeks, 1.2, 1.8 and 2.4 mg
# [10] = Week 12, 1.2 mg, Baseline 3 (50.0%)
structure (smiles),measurement,setting,value
"CC[C@H](C)[C@H](NC(=O)[C@H](Cc1ccccc1)NC(=O)[C@H](CCC(=O)O)NC(=O)[C@@H]1CCCCNC(=O)CC[C@H](NC(=O)[C@H](CC(=O)O)NC(=O)[C@H](CC(C)C)NC(=O)[C@H](Cc2ccc(O)cc2)NC(=O)[C@H](CCCCN)NC(=O)[C@H](CO)NC(=O)[C@H](Cc2ccc(O)cc2)NC(=O)[C@H](CC(=O)O)NC(=O)[C@H](CO)NC(=O)[C@@H](NC(=O)[C@H](Cc2ccccc2)NC(=O)[C@@H](NC(=O)CNC(=O)[C@H](CCC(N)=O)NC(=O)C(C)(C)NC(=O)[C@@H](N)Cc2c[nH]cn2)[C@@H](C)O)[C@@H](C)O)C(=O)N[C@@H](CCCCNC(=O)[C@H]2O[C@@H](OCCCCCCCCCCCCCCCCCC(=O)O)[C@H](O)[C@@H](O)[C@@H]2O)C(=O)N[C@@H](C)C(=O)N[C@@H](C)C(=O)N1)C(=O)N[C@@H](CCC(N)=O)C(=O)N[C@@H](Cc1c[nH]c2ccccc12)C(=O)N[C@@H](CC(C)C)C(=O)N[C@@H](CC(C)C)C(=O)N[C@@H](CCC(N)=O)C(=O)N[C@H](C(N)=O)[C@@H](C)O [ALT-801, pemvidutide]","Fasting Plasma Glucose, change from baseline",[1]; 1.2 mg SC once weekly,+3.0 mg/dL
same,"Fasting Plasma Glucose, percent change from baseline",[1]; 1.2 mg SC once weekly,+3.5%
same,"Fasting Plasma Glucose, change from baseline",[1]; 1.8 mg SC once weekly,-0.4 mg/dL
same,"Fasting Plasma Glucose, percent change from baseline",[1]; 1.8 mg SC once weekly,−0.5%
same,"Fasting Plasma Glucose, change from baseline",[1]; 2.4 mg SC once weekly,-0.8 mg/dL
same,"Fasting Plasma Glucose, percent change from baseline",[1]; 2.4 mg SC once weekly,−0.9%
same,"HOMA-IR (insulin resistance), Mean (SD)","[1]; Baseline, 1.2 mg group",2.5 (1.2)
same,"HbA1c, Mean (SD)","[1]; Baseline, 1.2 mg group",5.3 (0.1) %
same,"HOMA-IR (insulin resistance), Mean (SD)","[1]; Baseline, 1.8 mg group",2.4 (2.5)
same,"HbA1c, Mean (SD)","[1]; Baseline, 1.8 mg group",5.5 (0.2) %
same,"HOMA-IR (insulin resistance), Mean (SD)","[1]; Baseline, 2.4 mg group",3.1 (1.8)
same,"HbA1c, Mean (SD)","[1]; Baseline, 2.4 mg group",5.3 (0.2) %
same,"HOMA-IR (insulin resistance), Mean (SD)","[1]; Week 12, 1.2 mg SC once weekly",2.0 (1.4)
same,"HbA1c, Mean (SD)","[1]; Week 12, 1.2 mg SC once weekly",5.4 (0.2) %
same,"HOMA-IR (insulin resistance), Mean (SD)","[1]; Week 12, 1.8 mg SC once weekly",2.2 (2.5)
same,"HbA1c, Mean (SD)","[1]; Week 12, 1.8 mg SC once weekly",5.4 (0.3) %
same,"HOMA-IR (insulin resistance), Mean (SD)","[1]; Week 12, 2.4 mg SC once weekly",2.4 (1.2)
same,"HbA1c, Mean (SD)","[1]; Week 12, 2.4 mg SC once weekly",5.3 (0.3) %
same,predicted t1/2 in humans,"[2]; human, plasma, subcutaneous",~100 h
same,estimated accumulation with repeated dosing at steady state,[2]; once-weekly (QW) dosing,≤ 2 fold
same,"appetite, in words",[3],decreased appetite and a dose response
same,expected outcome of trial,[4],safe and tolerable
same,"% activity, GCGR",[5],100%
same,Emax,"[5]; CHO, read-out: intrinsic activity, GCGR",115%
same,EC50,"[5]; equipotent (1:1) activity at both receptors, GCGR",~0.04 nM
same,"Metabolic syndrome, %",[6]; [10],50.0%
same,"Pre-diabetes, %",[6]; [10],0.0%
same,"Metabolic syndrome, %","[6]; Week 12, 1.8 mg, Baseline 4 (44.4%)",22.2%
same,"Pre-diabetes, %","[6]; Week 12, 1.8 mg, Baseline 5 (55.6%)",33.3%
same,"Metabolic syndrome, %","[6]; Week 12, 2.4 mg, Baseline 5 (55.6%)",66.7%
same,"Pre-diabetes, %","[6]; Week 12, 2.4 mg, Baseline 7 (77.8%)",11.1%
same,"monkey NOAEL, equivalent in a 60 kg human",[7]; body surface area scaling,0.49 mg/wk
same,primary findings,[7]; monkeys,weight loss
same,"Early withdrawal due to adverse event, % of subjects",[8]; 1.2 mg SC once weekly,(0%)
same,"Early withdrawal due to adverse event, % of subjects",[8]; 1.8 mg SC once weekly,(0%)
same,"Early withdrawal due to adverse event, % of subjects",[8]; 2.4 mg SC once weekly,(0%)
same,withdrawal / study discontinuations due to adverse events,[8]; 12 weeks,No subject withdrew; also recorded: no study discontinuations due to adverse events
same,"blood pressure, in words",[9],improved blood pressure across all dose groups

# “Also recorded” adds a separate entry of the source.
